Results from patent US11667628B2, “Compounds for imaging tau proteins that accumulate in brain” (National Institutes for Quantum and Radiological Science …, priority 2012, dated 2023).

Chains of the proteins cited; added tags and fusions are not shown. Lines headed by an entry give the natural chain unless they say otherwise; changes in a name come on top.
UniProt P10636: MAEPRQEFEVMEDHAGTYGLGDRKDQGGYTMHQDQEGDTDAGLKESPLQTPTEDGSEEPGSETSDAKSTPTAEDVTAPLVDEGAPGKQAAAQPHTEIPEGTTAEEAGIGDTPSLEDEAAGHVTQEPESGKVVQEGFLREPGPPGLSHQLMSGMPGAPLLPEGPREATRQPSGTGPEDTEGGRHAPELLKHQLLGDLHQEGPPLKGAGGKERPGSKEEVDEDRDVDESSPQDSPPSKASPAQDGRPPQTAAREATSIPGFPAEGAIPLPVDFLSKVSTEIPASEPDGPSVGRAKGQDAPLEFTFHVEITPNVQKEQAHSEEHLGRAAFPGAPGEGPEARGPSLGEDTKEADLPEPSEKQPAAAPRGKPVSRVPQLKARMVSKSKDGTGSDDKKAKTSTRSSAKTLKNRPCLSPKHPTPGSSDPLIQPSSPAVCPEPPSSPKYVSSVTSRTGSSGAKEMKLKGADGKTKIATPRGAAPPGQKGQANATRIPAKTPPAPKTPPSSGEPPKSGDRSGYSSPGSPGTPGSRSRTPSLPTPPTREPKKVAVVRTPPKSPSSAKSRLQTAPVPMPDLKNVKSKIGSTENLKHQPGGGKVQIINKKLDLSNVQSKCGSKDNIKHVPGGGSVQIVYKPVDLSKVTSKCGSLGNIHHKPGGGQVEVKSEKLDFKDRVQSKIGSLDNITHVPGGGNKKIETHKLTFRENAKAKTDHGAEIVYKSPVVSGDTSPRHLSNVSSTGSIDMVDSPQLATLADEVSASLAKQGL

Key:
[1] = biological target: tau accumulations in the PS19 mice (Homo sapiens, UniProt P10636, P618S); assay: Ex vivo fluorescence microscopy and multi-photon imaging after intravenous administration; conditions: 60 minutes; for 2-photon labeling of spinal cord block of PS19 mice, ex vivo sample: 1 mg/kg intravenous
[2] = biological target: tau inclusions in spinal cord of PS19 mice (Homo sapiens, UniProt P10636, P618S); assay: In vivo 2-photon laser scanning fluorescence microscopic examination
[3] = biological target: tau pathologies of PS19 mice (Homo sapiens, UniProt P10636, P618S); assay: In vivo PET imaging of mice; conditions: for PET visualization of tau pathologies of PS19 mice: 60 to 90 minutes after administration
[4] = biological target: tau accumulations in PS19 mice (Homo sapiens, UniProt P10636, P618S); assay: Non-invasive near infrared fluorescence imaging of tau accumulations in living mice
[5] = biological target: tau inclusions in brain stem and spinal cord of PS19 mice (Homo sapiens, UniProt P10636, P618S); assay: Ex vivo autoradiography of mice; conditions: for radiolabeling of tau inclusions in brain stem and spinal cord of PS19 mice: caudal vein, 45 minutes after injection
[6] = biological target: fibrous aggregate pathologies in the brain stems of PS19 mice (Homo sapiens, UniProt P10636, P618S); assay: In vitro autoradiography, mouse brain sections; conditions: for radiolabeling of fibrous aggregate pathologies, mouse brain stems: up to 1 nM radioligand

`CNc1ccc(/C=C/C=C/c2nc3cc(O)c(O)cc3s2)cn1` was tested, and the “2-photon labeling of spinal cord block of PS19 mice, ex vivo sample” value [1] was “labelled”.

In the case of `CNc1ccc(/C=C/C=C/c2nc3ccc(O)cc3s2)cc1`, the “2-photon labeling of spinal cord block of PS19 mice, ex vivo sample” value [1] is reported as “labelled”.

`CNc1ccc(/C=C/C=C/c2nc3ccc(O)cc3s2)cn1` was tested, and the “blood brain barrier passage” value ([2]; 1 mg/kg intravenous) was “passes the blood brain barrier”, the “time of spread of signals from blood vessels to spinal cord tissues” value ([2]; 1 mg/kg intravenous) was ≤ 5 min and the “time to appearance of signals in blood vessels after injection” value ([2]; 1 mg/kg intravenous) was ≤ 3 s. The “binding to tau inclusions in PS19 mice” value ([2]; 1 mg/kg intravenous, no such signals in WT mice) was “clear binding to tau inclusions” and the “time to disappearance from WT mice” value ([2]; FIG. 5I, after injection) was ≤ 300 s.

“2-((1E, 3E)-4-(4-(dimethylamino)phenyl)buta-1, 3-dienyl)-3-ethyl-6-[^11C] methoxybenzo[d]thiazole-3-ium” was tested, and the “PET retention in brain stems, PS mice compared to WT mice” value ([3]; 30 to 90 minutes after injection) was “held in the brain stems of the PS mice”.

With `CC[n+]1c(/C=C/C=C/c2ccc(N(C)C)cc2)sc2ccccc21` [PBB5, 2-((1E,3E)-4-(4-(dimethylamino)phenyl)buta-1,3-dienyl)-3-ethylbenzo[d] thiazole-3-ium] the “fluorescence intensity in brain stem and spinal cord ROIs, PS19 versus WT mice” value ([4]; 0.1 mg/kg intravenous, 30 minutes) was “exceed the intensity in the WT mice”, the “signals in brain stems and spinal cords of PS19 mice” value ([4]; 0.1 mg/kg intravenous, 240 minutes later) was “signals were observed” and the “fluorescence duration in BS and SC ROIs of tau Tg mice compared to WT” value ([4]; 120 minutes after intravenous injection, 11-month-old mice) was “extended durations of fluorescence”. The “ratios of fluorescence intensity in BS and SC ROIs to FC ROI” value ([4]; WT n=7, PS19 n=7, p<0.001 genotype) was “significantly bigger in the WT mice than in the PS19 mice”.

`[11CH3]Nc1ccc(/C=C/C=C/c2nc3ccc(O)cc3s2)cc1` [[^11C]PBB2, 2-((1E,3E)-4-(4-([^11C]methylamino)phenyl)buta-1,3-dienyl)benz[d]thiazole-6-ol] was tested, and the “radiolabeling of tau inclusions in brain stem and spinal cord of PS19 mice” value [5] was “radio-labeled”, the “PET visualization of tau pathologies of PS19 mice” value [3] was “successfully visualized in vivo” and the “radiolabeling of fibrous aggregate pathologies, mouse brain stems” value [6] was “strongly radio-labeled”.

With `[11CH3]Nc1ccc(/C=C/C=C/c2nc3ccc(O)cc3s2)cn1` [[^11C]PBB3, 2-((1E,3E)-4-(6-([^11C]methylamino)pyridine-3-yl)buta-1,3-dienyl)benz[d]thiazole-6-ol] the “radiolabeling of tau inclusions in brain stem and spinal cord of PS19 mice” value [5] was “radio-labeled”, the “selectivity of radiolabeling of tau inclusions” value ([5]; compared with [^11C]PBB2) was “more selectively” and the “PET visualization of tau pathologies of PS19 mice” value [3] was “successfully visualized in vivo”. The “time of maximum brain stem to striatum ratio” value ([3]; PS19 mice) was “approximately 70 minutes”, the “blood brain barrier passage” value ([3]; after intravenous injection) was “passed the blood brain barrier quickly” and the “signal in brain stems of 12-month-old PS19 mice” value ([3]; imaging period 90 minutes, significantly different from WT) was “maintained over the imaging period”. For the same molecule, the “half-life of removal of unbound and non-specifically bound compound from the brains” value ([3]; intravenous injection) was “approximately 10 minutes”, the “increase of average BS-to-ST ratio, PS19 versus WT mice” value ([3]; over 45 to 90 minutes, 12-month-old mice) was 40% and the “binding in presence of non-radioactive ligand” value ([6]; non-radioactive PPB3 (10 μM), FIG. 6A, PS19 and AD sections) was “blocked”. The “radiolabeling of fibrous aggregate pathologies, mouse brain stems” value [6] was “strongly radio-labeled”.

In the case of “(E,E)-1-fluoro-2,5-bis(3-hydroxycarbonyl-4-hydroxy)styrylbenzene”, the “ex vivo labeling of tau accumulations in PS19 mice” value ([1]; caudal vein, large amount of administration necessary (10 mg/kg FSB)) is reported as “found to bind to tau accumulations in the PS19 mice”.
